Measured values from US20140100156A1 (SANOFI, priority 2012, published 2014).

By UniProt entry, the sequences of proteins in these tests, tags left out. Residues count along the entry.
UniProt P47871, 26-477: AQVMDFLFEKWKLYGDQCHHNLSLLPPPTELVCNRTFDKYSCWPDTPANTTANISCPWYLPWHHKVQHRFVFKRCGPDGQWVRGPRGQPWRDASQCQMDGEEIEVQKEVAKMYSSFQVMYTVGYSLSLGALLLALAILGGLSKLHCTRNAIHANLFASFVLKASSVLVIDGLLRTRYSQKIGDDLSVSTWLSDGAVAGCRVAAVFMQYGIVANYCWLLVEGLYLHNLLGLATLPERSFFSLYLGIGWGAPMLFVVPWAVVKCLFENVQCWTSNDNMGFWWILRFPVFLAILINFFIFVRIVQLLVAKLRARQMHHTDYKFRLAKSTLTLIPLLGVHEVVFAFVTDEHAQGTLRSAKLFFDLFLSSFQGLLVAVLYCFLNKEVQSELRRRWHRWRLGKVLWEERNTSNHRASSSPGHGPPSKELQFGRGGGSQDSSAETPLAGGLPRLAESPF
UniProt P43220, 24-463: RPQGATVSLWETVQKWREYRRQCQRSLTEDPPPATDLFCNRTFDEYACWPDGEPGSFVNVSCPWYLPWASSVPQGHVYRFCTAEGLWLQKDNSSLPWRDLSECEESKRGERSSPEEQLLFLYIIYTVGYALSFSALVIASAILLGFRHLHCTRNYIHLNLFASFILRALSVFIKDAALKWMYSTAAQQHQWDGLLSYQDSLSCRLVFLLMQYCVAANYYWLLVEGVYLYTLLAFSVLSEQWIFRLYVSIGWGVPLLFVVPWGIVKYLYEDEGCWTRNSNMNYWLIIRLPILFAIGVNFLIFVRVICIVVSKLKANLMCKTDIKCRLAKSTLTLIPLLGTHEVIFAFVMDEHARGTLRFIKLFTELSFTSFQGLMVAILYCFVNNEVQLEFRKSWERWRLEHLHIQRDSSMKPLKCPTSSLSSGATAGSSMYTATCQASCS

Legend:
human glucagon receptor = target: T1, human glucagon receptor (Homo sapiens, UniProt P47871); test: cAMP response (HTRF) of HEK-293 cells stably expressing human glucagon receptor; type: cell-based; details: Table 5; cAMP, HEK-293; read-out: EC50 hGlucagon-R
T1 construct: expressed in transfected cells; host or cells: HEK-293

human GLP-1 receptor = target: T2, human GLP-1 receptor (Homo sapiens, UniProt P43220); test: cAMP response (HTRF) of HEK-293 cells stably expressing human GLP-1 receptor; type: cell-based; details: Table 5; cAMP, HEK-293; read-out: EC50 hGLP-1R
T2 construct: expressed in transfected cells; host or cells: HEK-293

Structure (SMILES)	EC50 (human glucagon receptor) [nM]	EC50 (human GLP-1 receptor) [pM]
CCCCCCCCCCCCCCCC(=O)N[C@@H](CCC(=O)N[C@@H](CCC(=O)NCCCC[C@H](NC(=O)[C@H](CCC(N)=O)NC(=O)[C@H](CCCCN)NC(=O)[C@H](CO)NC(=O)[C@H](CC(C)C)NC(=O)[C@H](CC(=O)O)NC(=O)[C@H](CO)NC(=O)[C@@H](NC(=O)[C@H](Cc1ccccc1)NC(=O)[C@@H](NC(=O)CNC(=O)[C@H](CCC(N)=O)NC(=O)C(C)(C)NC(=O)[C@@H](N)Cc1c[nH]cn1)[C@@H](C)O)[C@@H](C)O)C(=O)N[C@@H](CC(=O)O)C(=O)N[C@@H](CCC(=O)O)C(=O)N[C@@H](CCC(N)=O)C(=O)N[C@@H](CCCNC(=N)N)C(=O)N[C@@H](C)C(=O)N[C@@H](CCCCN)C(=O)N[C@@H](CCC(=O)O)C(=O)N[C@@H](Cc1ccccc1)C(=O)N[C@H](C(=O)N[C@@H](CCC(=O)O)C(=O)N[C@@H](Cc1c[nH]c2ccccc12)C(=O)N[C@@H](CC(C)C)C(=O)N[C@@H](CCCCN)C(=O)N[C@@H](CO)C(=O)NCC(=O)NCC(=O)N1CCC[C@H]1C(=O)N[C@@H](CO)C(=O)N[C@@H](CO)C(=O)NCC(=O)N[C@@H](C)C(=O)N1CCC[C@H]1C(=O)N1CCC[C@H]1C(=O)N1CCC[C@H]1C(=O)N[C@@H](CO)C(N)=O)[C@@H](C)CC)C(=O)O)C(=O)O [compound 207]	0.0012	1.1
CCCCCCCCCCCCCCCCCC(=O)N[C@@H](CCC(=O)NCCCC[C@H](NC(=O)[C@H](CCC(N)=O)NC(=O)[C@H](CCCCN)NC(=O)[C@H](CO)NC(=O)[C@H](CC(C)C)NC(=O)[C@H](CC(=O)O)NC(=O)[C@H](CO)NC(=O)[C@@H](NC(=O)[C@H](Cc1ccccc1)NC(=O)[C@@H](NC(=O)CNC(=O)[C@H](CCC(N)=O)NC(=O)C(C)(C)NC(=O)[C@@H](N)Cc1c[nH]cn1)[C@@H](C)O)[C@@H](C)O)C(=O)N[C@@H](CC(=O)O)C(=O)N[C@@H](CCCCN)C(=O)N[C@@H](CCCNC(=N)N)C(=O)N[C@@H](CCCNC(=N)N)C(=O)N[C@@H](C)C(=O)N[C@@H](CCC(N)=O)C(=O)N[C@@H](CC(=O)O)C(=O)N[C@@H](Cc1ccccc1)C(=O)N[C@H](C(=O)N[C@@H](CCC(=O)O)C(=O)N[C@@H](Cc1c[nH]c2ccccc12)C(=O)N[C@@H](CC(C)C)C(=O)N[C@@H](CCCCN)C(=O)N[C@@H](C)C(=O)N[C@H](C)C(=O)NCC(=O)N1CCC[C@H]1C(=O)N[C@@H](CO)C(=O)N[C@@H](CO)C(=O)NCC(=O)N[C@@H](C)C(=O)N1CCC[C@H]1C(=O)N1CCC[C@H]1C(=O)N1CCC[C@H]1C(=O)N[C@@H](CO)C(N)=O)[C@@H](C)CC)C(=O)O [compound 209]	0.0019	5.4
CCCCCCCCCCCCCCCCCC(=O)N[C@@H](CCC(=O)NCCCC[C@H](NC(=O)[C@H](CCC(N)=O)NC(=O)[C@H](CCCCN)NC(=O)[C@H](CO)NC(=O)[C@H](CC(C)C)NC(=O)[C@H](CC(=O)O)NC(=O)[C@H](CO)NC(=O)[C@@H](NC(=O)[C@H](Cc1ccccc1)NC(=O)[C@@H](NC(=O)CNC(=O)[C@H](CCC(N)=O)NC(=O)C(C)(C)NC(=O)[C@@H](N)Cc1c[nH]cn1)[C@@H](C)O)[C@@H](C)O)C(=O)N[C@@H](CC(=O)O)C(=O)N[C@@H](CCCCN)C(=O)N[C@@H](CCCNC(=N)N)C(=O)N[C@@H](CCCNC(=N)N)C(=O)N[C@@H](C)C(=O)N[C@@H](CCC(N)=O)C(=O)N[C@@H](CC(C)C)C(=O)N[C@@H](Cc1ccccc1)C(=O)N[C@H](C(=O)N[C@@H](CCC(=O)O)C(=O)N[C@@H](Cc1c[nH]c2ccccc12)C(=O)N[C@@H](CC(C)C)C(=O)N[C@@H](CCCCN)C(=O)N[C@@H](C)C(=O)N[C@H](C)C(=O)NCC(=O)N1CCC[C@H]1C(=O)N[C@@H](CO)C(=O)N[C@@H](CO)C(=O)NCC(=O)N[C@@H](C)C(=O)N1CCC[C@H]1C(=O)N1CCC[C@H]1C(=O)N1CCC[C@H]1C(=O)N[C@@H](CO)C(N)=O)[C@@H](C)CC)C(=O)O [compound 210]	0.003	6.7
CCCCCCCCCCCCCCCCCC(=O)N[C@@H](CCC(=O)NCCCC[C@H](NC(=O)[C@H](CCC(N)=O)NC(=O)[C@H](CCCCN)NC(=O)[C@H](CO)NC(=O)[C@H](CC(C)C)NC(=O)[C@H](CC(=O)O)NC(=O)[C@H](CO)NC(=O)[C@@H](NC(=O)[C@H](Cc1ccccc1)NC(=O)[C@@H](NC(=O)CNC(=O)[C@H](CCC(N)=O)NC(=O)C(C)(C)NC(=O)[C@@H](N)Cc1c[nH]cn1)[C@@H](C)O)[C@@H](C)O)C(=O)N[C@@H](CC(=O)O)C(=O)N[C@@H](CCCCN)C(=O)N[C@@H](CCCNC(=N)N)C(=O)N[C@@H](C)C(=O)N[C@@H](C)C(=O)N[C@@H](CCC(N)=O)C(=O)N[C@@H](CC(C)C)C(=O)N[C@@H](Cc1ccccc1)C(=O)N[C@H](C(=O)N[C@@H](CCC(=O)O)C(=O)N[C@@H](Cc1c[nH]c2ccccc12)C(=O)N[C@@H](CC(C)C)C(=O)N[C@@H](CCCCN)C(=O)N[C@@H](C)C(=O)N[C@H](C)C(=O)NCC(=O)N1CCC[C@H]1C(=O)N[C@@H](CO)C(=O)N[C@@H](CO)C(=O)NCC(=O)N[C@@H](C)C(=O)N1CCC[C@H]1C(=O)N1CCC[C@H]1C(=O)N1CCC[C@H]1C(=O)N[C@@H](CO)C(N)=O)[C@@H](C)CC)C(=O)O [compound 211]	0.0264	15.5
CCCCCCCCCCCCCCCCCCCCC(=O)N[C@@H](CCC(=O)NCCCC[C@H](NC(=O)[C@H](CCC(N)=O)NC(=O)[C@H](CCCCN)NC(=O)[C@H](CO)NC(=O)[C@H](CC(C)C)NC(=O)[C@H](CC(=O)O)NC(=O)[C@H](CO)NC(=O)[C@@H](NC(=O)[C@H](Cc1ccccc1)NC(=O)[C@@H](NC(=O)CNC(=O)[C@H](CCC(N)=O)NC(=O)C(C)(C)NC(=O)[C@@H](N)Cc1c[nH]cn1)[C@@H](C)O)[C@@H](C)O)C(=O)N[C@@H](CC(=O)O)C(=O)N[C@@H](CCCCN)C(=O)N[C@@H](CCCNC(=N)N)C(=O)N[C@@H](C)C(=O)N[C@@H](C)C(=O)N[C@@H](CCC(N)=O)C(=O)N[C@@H](CC(C)C)C(=O)N[C@@H](Cc1ccccc1)C(=O)N[C@H](C(=O)N[C@@H](CCC(=O)O)C(=O)N[C@@H](Cc1c[nH]c2ccccc12)C(=O)N[C@@H](CC(C)C)C(=O)N[C@@H](CCCCN)C(=O)N[C@@H](C)C(=O)N[C@H](C)C(=O)NCC(=O)N1CCC[C@H]1C(=O)N[C@@H](CO)C(=O)N[C@@H](CO)C(=O)NCC(=O)N[C@@H](C)C(=O)N1CCC[C@H]1C(=O)N1CCC[C@H]1C(=O)N1CCC[C@H]1C(=O)N[C@@H](CO)C(N)=O)[C@@H](C)CC)C(=O)O [compound 212]	0.0066	14.1
CCCCCCCCCCCCCCCCCC(=O)N[C@@H](CCC(=O)NCCCC[C@H](NC(=O)[C@H](CCC(N)=O)NC(=O)[C@H](CCCCN)NC(=O)[C@H](CO)NC(=O)[C@H](CC(C)C)NC(=O)[C@H](CC(=O)O)NC(=O)[C@H](CO)NC(=O)[C@@H](NC(=O)[C@H](Cc1ccccc1)NC(=O)[C@@H](NC(=O)CNC(=O)[C@H](CCC(N)=O)NC(=O)C(C)(C)NC(=O)[C@@H](N)Cc1c[nH]cn1)[C@@H](C)O)[C@@H](C)O)C(=O)N[C@@H](CC(=O)O)C(=O)N[C@@H](CCC(=O)O)C(=O)N[C@@H](CCC(=O)O)C(=O)N[C@@H](C)C(=O)N[C@@H](C)C(=O)N[C@@H](CCCCN)C(=O)N[C@@H](CC(C)C)C(=O)N[C@@H](Cc1ccccc1)C(=O)N[C@H](C(=O)N[C@@H](CCC(=O)O)C(=O)N[C@@H](Cc1c[nH]c2ccccc12)C(=O)N[C@@H](CC(C)C)C(=O)N[C@@H](CCCCN)C(=O)N[C@@H](C)C(=O)NCC(=O)NCC(=O)N1CCC[C@H]1C(=O)N[C@@H](CO)C(=O)N[C@@H](CO)C(=O)NCC(=O)N[C@@H](C)C(=O)N1CCC[C@H]1C(=O)N1CCC[C@H]1C(=O)N1CCC[C@H]1C(=O)N[C@@H](CO)C(N)=O)[C@@H](C)CC)C(=O)O [compound 213]	0.0591	2.7
CCCCCCCCCCCCCCCCCC(=O)N[C@@H](CCC(=O)NCCCC[C@H](NC(=O)[C@H](CCC(N)=O)NC(=O)[C@H](CCCCN)NC(=O)[C@H](CO)NC(=O)[C@H](CC(C)C)NC(=O)[C@H](CC(=O)O)NC(=O)[C@H](CO)NC(=O)[C@@H](NC(=O)[C@H](Cc1ccccc1)NC(=O)[C@@H](NC(=O)CNC(=O)[C@H](CCC(N)=O)NC(=O)C(C)(C)NC(=O)[C@@H](N)Cc1c[nH]cn1)[C@@H](C)O)[C@@H](C)O)C(=O)N[C@@H](CC(=O)O)C(=O)N[C@@H](CCC(=O)O)C(=O)N[C@@H](CCC(=O)O)C(=O)N[C@@H](C)C(=O)N[C@@H](C)C(=O)N[C@@H](CCCNC(=N)N)C(=O)N[C@@H](CC(C)C)C(=O)N[C@@H](Cc1ccccc1)C(=O)N[C@H](C(=O)N[C@@H](CCC(=O)O)C(=O)N[C@@H](Cc1c[nH]c2ccccc12)C(=O)N[C@@H](CC(C)C)C(=O)N[C@@H](CCCCN)C(=O)N[C@@H](C)C(=O)NCC(=O)NCC(=O)N1CCC[C@H]1C(=O)N[C@@H](CO)C(=O)N[C@@H](CO)C(=O)NCC(=O)N[C@@H](C)C(=O)N1CCC[C@H]1C(=O)N1CCC[C@H]1C(=O)N1CCC[C@H]1C(=O)N[C@@H](CO)C(N)=O)[C@@H](C)CC)C(=O)O [compound 214]	0.016	4.2
CCCCCCCCCCCCCCCCCC(=O)N[C@@H](CCC(=O)NCCCC[C@H](NC(=O)[C@H](CCC(N)=O)NC(=O)[C@H](CCCCN)NC(=O)[C@H](CO)NC(=O)[C@H](CC(C)C)NC(=O)[C@H](CC(=O)O)NC(=O)[C@H](CO)NC(=O)[C@@H](NC(=O)[C@H](Cc1ccccc1)NC(=O)[C@@H](NC(=O)CNC(=O)[C@H](CCC(N)=O)NC(=O)C(C)(C)NC(=O)[C@@H](N)Cc1c[nH]cn1)[C@@H](C)O)[C@@H](C)O)C(=O)N[C@@H](CCC(=O)O)C(=O)N[C@@H](CCC(=O)O)C(=O)N[C@@H](CCC(=O)O)C(=O)N[C@@H](C)C(=O)N[C@@H](C)C(=O)N[C@@H](CCCNC(=N)N)C(=O)N[C@@H](CC(C)C)C(=O)N[C@@H](Cc1ccccc1)C(=O)N[C@H](C(=O)N[C@@H](CCC(=O)O)C(=O)N[C@@H](Cc1c[nH]c2ccccc12)C(=O)N[C@@H](CC(C)C)C(=O)N[C@@H](CCCCN)C(=O)N[C@@H](C)C(=O)NCC(=O)NCC(=O)N1CCC[C@H]1C(=O)N[C@@H](CO)C(=O)N[C@@H](CO)C(=O)NCC(=O)N[C@@H](C)C(=O)N1CCC[C@H]1C(=O)N1CCC[C@H]1C(=O)N1CCC[C@H]1C(=O)N[C@@H](CO)C(N)=O)[C@@H](C)CC)C(=O)O [compound 215]	0.0426	5.3
